The values that follow are results of earlier work, collected in patent US5747463A, “Malonate derivatives of glycolipids as cell adhesion inhibitors” (Bristol-Myers Squibb Company, priority 1996, dated 1998).

The data set deals with T1, P-selectin (Homo sapiens, UniProt P16109).
T1 sequence (P16109 42-830): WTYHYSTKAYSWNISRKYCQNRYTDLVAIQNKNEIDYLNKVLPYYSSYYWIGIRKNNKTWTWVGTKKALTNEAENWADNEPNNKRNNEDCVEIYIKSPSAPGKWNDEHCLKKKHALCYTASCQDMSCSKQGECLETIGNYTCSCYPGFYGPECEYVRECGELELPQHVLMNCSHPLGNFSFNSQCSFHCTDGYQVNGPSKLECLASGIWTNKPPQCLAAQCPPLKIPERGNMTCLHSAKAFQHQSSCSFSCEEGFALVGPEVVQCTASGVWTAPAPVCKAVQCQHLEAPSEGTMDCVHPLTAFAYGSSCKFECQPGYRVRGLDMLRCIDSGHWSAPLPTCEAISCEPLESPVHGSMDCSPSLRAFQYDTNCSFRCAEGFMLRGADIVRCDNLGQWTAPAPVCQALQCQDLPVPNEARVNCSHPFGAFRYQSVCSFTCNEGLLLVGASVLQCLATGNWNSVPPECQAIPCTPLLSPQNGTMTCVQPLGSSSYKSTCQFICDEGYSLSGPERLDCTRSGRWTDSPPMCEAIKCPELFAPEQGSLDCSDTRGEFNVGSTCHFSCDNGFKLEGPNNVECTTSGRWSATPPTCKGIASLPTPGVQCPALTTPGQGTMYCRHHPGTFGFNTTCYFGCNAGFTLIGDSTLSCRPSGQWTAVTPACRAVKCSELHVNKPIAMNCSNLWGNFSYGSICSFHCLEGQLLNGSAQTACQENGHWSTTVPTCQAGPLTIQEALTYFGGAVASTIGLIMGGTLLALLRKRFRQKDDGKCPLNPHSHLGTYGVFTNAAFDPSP
Particulars: literature; cited from earlier work.

For the substance sialyl-Lewis^x, the “binding to P-selectin” value is given as “shown to bind”.
